The source of these data is PubChem BioAssay AID1117267 (The Scripps Research Institute Molecular Screening Center, 2014).

Only a part is listed here, and it is no random draw. Calls of active or inactive are those of the source.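 Rule for the calls: active = activation above the mean of all tested compounds plus 3 SD (cut at about 9.5% in these data); inactive = the rest.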

This test is described as follows: TTR transcription activators in neuroblastoma reporter cells, primary screen, cell-based, luminescence, SH-SY5Y, TTR promoter Gaussia luciferase (AID 1117267).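 Note: cells exposed to compounds for one day before reading; 0% = median of all test compound wells on the plate.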 The note with it: at 16.7 µM, hits give high values, 100% = recombinant luciferase protein wells.
In the case of `CCCCn1nnnc1C(c1ccccc1)N1CCC(n2c(=O)[nH]c3ccccc32)CC1` (stereo not given), the activation is inactive: -1.25%.

Take `O=c1[nH]c2ccccc2n1C1CCN(C(c2ccnc3ccccc23)c2nnnn2C2CCCC2)CC1` (stereo not given): the activation was inactive: -1.66%.

On to `N/C(=N\O)c1c(N)no[n+]1[O-]`, for which the activation is inactive: 1.42%.

For the molecule `COc1cccc(C(c2nnnn2C(C)(C)C)N2CCC(n3c(=O)[nH]c4ccccc43)CC2)c1OC` (stereo not given), the activation was inactive: -2.32%.

As for `CCCCn1nnnc1C(c1cccc(OC)c1OC)N1CCC(n2c(=O)[nH]c3ccccc32)CC1` (stereo not given), the activation is inactive: 1.81%.

Turning to `O=c1[nH]c2ccccc2n1C1CCN(C(c2cccs2)c2nnnn2C2CCCC2)CC1` (stereo not given), the activation is inactive: 1.15%.

On to `O=c1[nH]c2ccccc2n1C1CCN(C(c2ccccc2)c2nnnn2C2CCCC2)CC1` (stereo not given), for which the activation was inactive: -1.37%.

`CC(C)(C)n1nnnc1C(c1cccc2ccccc12)N1CCC(n2c(=O)[nH]c3ccccc32)CC1` (stereo not given): the activation is inactive: -2.7%.

For the molecule `CCC(c1nnnn1C1CCCCC1)N1CCC(n2c(=O)[nH]c3ccccc32)CC1` (stereo not given), the activation is inactive: -0.75%.

Regarding `COc1ccc(C(c2nnnn2C2CCCCC2)N2CCC(n3c(=O)[nH]c4ccccc43)CC2)cc1` (stereo not given), the activation was inactive: -0.59%.

Turning to `O=C(NCC1(N2CCCCC2)CCCCC1)c1ccco1`, the activation was inactive: 1.9%.

For `CC(C)(C)OC(=O)N1CCC(Nc2ccccc2)CC1`, the activation is inactive: -1.47%.

`COc1cc(OC)cc(C(=O)NCC2(N3CCOCC3)CCCCC2)c1`: the activation was inactive: 0.76%.

`COc1cccc(C(c2nnnn2C2CCCC2)N2CCC(n3c(=O)[nH]c4ccccc43)CC2)c1OC` (stereo not given): the activation is inactive: -3.55%.

With `CSc1ccccc1C(=O)NCC1(N2CCCCC2)CCCCC1`, the activation was inactive: 2.76%.

Turning to `O=c1[nH]c2ccccc2n1C1CCN(C(c2ccccc2OC(F)(F)F)c2nnnn2C2CCCCC2)CC1` (stereo not given), the activation is inactive: -2.48%.

On to `CCOC(=O)N1CCC(Nc2ccc(OC)cc2)CC1`, for which the activation is inactive: 1.84%.

As for `COc1ccc(Cl)cc1C(=O)NCC1(N2CCOCC2)CCCCC1`, the activation was inactive: -0.03%.

With `N#CC1(Nc2ccccc2)CCN(Cc2ccccc2)CC1`, the activation was inactive: 9.43%.

As for `CCOc1ccc(C)cc1CN(CCCl)CCCl`, the activation was inactive: -0.06%.

`CC(C)(C)n1nnnc1C(c1ccccc1)N1CCC(n2c(=O)[nH]c3ccccc32)CC1` (stereo not given): the activation was inactive: 1.52%.

Take `CCOC(=O)N1CCC(Nc2ccc(F)cc2)CC1`: the activation was inactive: 0.39%.

As for `COc1ccc(NC2CCN(CCc3ccccc3)CC2)c(OC)c1`, the activation is inactive: -0.88%.

Take `CCCCn1nnnc1C(c1cc2ccccc2o1)N1CCC(n2c(=O)[nH]c3ccccc32)CC1` (stereo not given): the activation was inactive: -3.79%.

In the case of `O=C(NCC1(N2CCCCC2)CCCCC1)c1ccc(OC(F)F)cc1`, the activation was inactive: -0.99%.

Turning to `O=C(NCC1(N2CCOCC2)CCCCC1)c1cc(=O)[nH]c2ccccc12`, the activation is inactive: 6.47%.

For `COC(=O)C1(Nc2ccccc2)CCN(Cc2ccccc2)CC1`, the activation was inactive: 1.95%.

On to `CCCCn1nnnc1C(c1ccnc2ccccc12)N1CCC(n2c(=O)[nH]c3ccccc32)CC1` (stereo not given), for which the activation is inactive: -0.24%.

As to `CCCOc1ccc(C(=O)NCC2(N(C)C)CCCCC2)cc1OC`, the activation was inactive: -1.01%.

As to `COc1ccc(C(c2nnnn2C2CCCC2)N2CCC(n3c(=O)[nH]c4ccccc43)CC2)cc1` (stereo not given), the activation is inactive: -1.84%.
